Measurements taken from US4518581A, “Imparting low- or anti-cariogenic property to orally-usable products” (Kabushiki Kaisha Hayashibara Seibutsu Kagaku Kenkyujo, priority 1981, dated 1985).

Chains of the proteins cited; added tags and fusions are not shown. Residues count along the entry.
UniProt P27470, 39-1592: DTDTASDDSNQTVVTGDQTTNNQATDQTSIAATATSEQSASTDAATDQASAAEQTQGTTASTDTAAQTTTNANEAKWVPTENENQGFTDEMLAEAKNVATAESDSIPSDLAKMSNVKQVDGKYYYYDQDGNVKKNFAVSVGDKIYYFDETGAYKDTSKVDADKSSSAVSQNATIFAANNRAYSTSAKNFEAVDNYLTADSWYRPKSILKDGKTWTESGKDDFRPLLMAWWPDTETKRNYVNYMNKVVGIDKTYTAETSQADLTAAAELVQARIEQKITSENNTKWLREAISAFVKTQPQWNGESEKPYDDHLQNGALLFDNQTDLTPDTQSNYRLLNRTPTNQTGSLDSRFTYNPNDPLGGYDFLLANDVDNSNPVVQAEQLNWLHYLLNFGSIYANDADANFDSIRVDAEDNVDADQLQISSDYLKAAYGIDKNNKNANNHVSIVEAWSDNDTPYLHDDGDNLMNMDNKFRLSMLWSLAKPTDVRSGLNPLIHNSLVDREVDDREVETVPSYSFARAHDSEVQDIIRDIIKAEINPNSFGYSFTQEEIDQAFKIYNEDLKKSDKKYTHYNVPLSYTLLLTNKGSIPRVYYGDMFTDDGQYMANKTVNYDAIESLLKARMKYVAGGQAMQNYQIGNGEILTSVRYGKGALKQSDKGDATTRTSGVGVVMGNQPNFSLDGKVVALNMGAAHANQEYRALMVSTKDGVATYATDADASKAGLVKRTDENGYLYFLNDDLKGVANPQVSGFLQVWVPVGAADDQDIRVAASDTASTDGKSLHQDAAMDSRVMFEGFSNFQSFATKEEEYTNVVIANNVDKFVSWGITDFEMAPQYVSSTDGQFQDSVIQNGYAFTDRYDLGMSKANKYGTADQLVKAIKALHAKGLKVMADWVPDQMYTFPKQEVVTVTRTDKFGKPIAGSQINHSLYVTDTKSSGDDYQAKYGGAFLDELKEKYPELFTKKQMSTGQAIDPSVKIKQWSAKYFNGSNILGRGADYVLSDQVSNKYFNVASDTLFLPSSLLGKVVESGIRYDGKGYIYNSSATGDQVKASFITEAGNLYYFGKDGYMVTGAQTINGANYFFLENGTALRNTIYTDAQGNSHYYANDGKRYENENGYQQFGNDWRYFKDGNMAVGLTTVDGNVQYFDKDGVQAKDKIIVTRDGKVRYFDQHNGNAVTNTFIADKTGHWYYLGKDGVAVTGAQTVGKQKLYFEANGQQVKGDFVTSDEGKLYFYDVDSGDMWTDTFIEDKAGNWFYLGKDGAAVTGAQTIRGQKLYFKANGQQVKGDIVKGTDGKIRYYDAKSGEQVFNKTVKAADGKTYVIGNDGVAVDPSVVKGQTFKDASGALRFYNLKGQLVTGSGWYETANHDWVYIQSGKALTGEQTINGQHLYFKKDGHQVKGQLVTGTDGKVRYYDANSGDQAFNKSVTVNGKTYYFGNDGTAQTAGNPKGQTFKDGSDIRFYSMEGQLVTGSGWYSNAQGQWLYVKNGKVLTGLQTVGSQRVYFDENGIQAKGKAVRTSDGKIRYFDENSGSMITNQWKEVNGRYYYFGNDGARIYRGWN

What was measured:
[1] = target: T1, water-insoluble glucan producing enzyme (Streptococcus downei, UniProt P27470); test: Effect of saccharides on formation of water-insoluble glucan from sucrose (Experiment 3); type: biochemical, Streptococcus mutans 6715 strain; settings: 1 ml 4 w/v % sucrose plus 1 ml 4 w/v % saccharide, 0.02 units enzyme, 37° C., 16 hours
T1 construct: endogenous in cells; host or cells: Streptococcus mutans 6715 strain (today S. sobrinus), culture supernatant, ammonium sulfate precipitate, dialyzed
Protocol: After completion of the cultivation, the culture was separated into cell precipitant and supernatant. Thereafter, to the supernatant was added with ammonium sulfate to give 60% saturation, and the resultant precipitant was dialyzed against 0.1M phosphate buffer (pH 7.2) to obtain an aqueous solution containing the enzyme.
The titers of the enzyme were assayed as follows: A mixture solution, consisting of 1 ml of 0.2M aqueous sucrose solution, 1 ml of water, 1 ml of 0.1M phosphate buffer containing 0.05 w/v % NaN3, and 0.5 ml of the enzyme solution (below 0.05 units), is incubated at 37° C. for 9 hours, followed by centrifugation of the reaction mixture. The resultant precipitant is mixed with 4 ml of 0.5N sodium hydroxide solution, and then incubated at this temperature for an additional one hour to dissolve the precipitant. The amount of water-insoluble glucan formed during the enzymatic reaction is then measured. One unit of the enzyme is defined as the amount of enzyme that transfers 1 μmole glucose from sucrose to the water-insoluble glucan in one minute.
Effects of some saccharides on the formation of water-insoluble glucan were tested: Water-insoluble glucan formation and inhibition thereof were determined according to the enzyme assay method as described in EXPERIMENT 1, except that the mixture solution contained sucrose, or sucrose and each saccharide as listed in TABLE I. The experiment was carried out as follows: A mixture solution, consisting of 1 ml of 4 w/v % aqueous sucrose solution, 1 ml of 4 w/v % aqueous solution of each saccharide as listed in TABLE I, 1.5 ml of 0.1M phosphate buffer containing 0.05 w/v % NaN3, and 0.5 ml of the enzyme solution (0.02 units), was incubated at 37° C. for 16 hours, and the water-insoluble glucan formation in the reaction mixture was determined according to the enzyme assy method.
In a control experiment, 1 ml of the above described saccharide solution was replaced with the same amount of water.
The inhibition degree was calculated with following equation:
Inhibition degree (%)=100-A/B×100
where A and B are respective amounts of the water-insoluble glucan formed (μg/ml) when the mixture solution contained sucrose or sucrose and each of the saccharides.

[2] = target: T1, water-insoluble glucan producing enzyme; test: as above; type: biochemical, Streptococcus mutans 6715 strain; settings: saccharide reduced to 10% against sucrose: 1 ml 4 w/v % sucrose plus 1 ml 0.4 w/v % saccharide, 37° C., 16 hours

| Compound | B: inhibition degree on water-insoluble glucan formation [1] | B: inhibition degree on water-insoluble glucan formation ([1]; listed as isomaltose) | C: inhibition degree of water-insoluble glucan formation [2] | C: inhibition degree of water-insoluble glucan formation ([2]; listed as isomaltose) |
| --- | --- | --- | --- | --- |
| OC[C@H]1O[C@H](OC[C@H]2OC(O)[C@H](O)[C@@H](O)[C@@H]2O)[C@H](O)[C@@H](O)[C@H]1O (stereo partly drawn) [Melibiose] | 0% |  |  |  |
| OC[C@H]1O[C@@H](OC[C@H]2OC(O)[C@H](O)[C@@H](O)[C@@H]2O)[C@H](O)[C@@H](O)[C@@H]1O (stereo partly drawn) [Gentiobiose] | 0% |  |  |  |
| OC[C@H]1O[C@H](OC[C@H]2OC(O)[C@H](O)[C@@H](O)[C@@H]2O)[C@H](O)[C@@H](O)[C@@H]1O (stereo partly drawn) [Isomaltose] | 76% | relatively high inhibition degree | 11% | extremely low inhibition |
